Laboratory results published in patent US20230285292A1, “COMPOSITIONS AND METHODS OF USING A PLA2-RESPONSIVE DRUG DELIVERY SYSTEM” (THE TRUSTEES OF THE UNIVERSITY OF PENNSYLVANIA, priority 2020, published 2023).

Assay: Bovine cartilage explant penetration assay
Settings: rhodamine 10 μM, incubation up to 8 days

1,2-dioleoyl-sn-glycero-3-phosphoethanolamine-N-(Lissamine rhodamine B sulfonyl) [free rhodamine]
distribution of fluorescence signal in cartilage: very little fluorescence signal was observed in the deep zone of cartilage
